From patent publication US5041542A, “Substituted pyrimido[5,4-d]pyrimidine nucleosides” (Nucleic Acid Research Institute, priority 1988, dated 1991)

Test system: adenosine deaminase
Conditions: 1 μM, prior addition

OC[C@H]1O[C@@H](n2cnc3c2N=CNC[C@H]3O)[C@H](O)[C@@H]1O [coformycin]
prevention of the deamination of ARPP: completely prevented the deamination of ARPP
